According to patent US20200354426A1 (MEDIMMUNE LIMITED, priority 2016, published 2020):
pEC50: −log10 of the molar value.

Target: T1, Human GIPr (Homo sapiens, UniProt P48546)
T1 construct: expressed in transfected cells
T1 sequence (P48546 22-466): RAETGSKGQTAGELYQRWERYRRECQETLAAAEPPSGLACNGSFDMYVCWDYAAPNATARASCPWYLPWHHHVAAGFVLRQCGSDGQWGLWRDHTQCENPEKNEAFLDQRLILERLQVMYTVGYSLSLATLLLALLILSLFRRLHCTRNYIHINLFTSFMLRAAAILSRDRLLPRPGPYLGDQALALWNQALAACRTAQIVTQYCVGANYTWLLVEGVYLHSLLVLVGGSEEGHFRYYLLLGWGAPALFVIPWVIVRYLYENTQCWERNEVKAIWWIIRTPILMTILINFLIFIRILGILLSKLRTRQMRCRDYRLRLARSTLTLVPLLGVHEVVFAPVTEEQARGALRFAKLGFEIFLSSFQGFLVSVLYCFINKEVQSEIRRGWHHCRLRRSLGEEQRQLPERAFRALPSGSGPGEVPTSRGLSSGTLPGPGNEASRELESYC
Assay: cAMP activity assay in assay medium (assay 1)
Assay type: cell-based
Settings: Table 4, read-out: hGIPR EC50
Excerpt: Biological Activity of Peptides in Cell-Based cAMP Activity Assay (Assay 1):
All sample dilutions were made in duplicate.

## GLP1 [reference compound]
  pEC50: 6.82
